According to patent US20120164142A1:

Biological target: T1, human natriuretic peptide receptor B (NPR-B) (human), P20594
T1 chain: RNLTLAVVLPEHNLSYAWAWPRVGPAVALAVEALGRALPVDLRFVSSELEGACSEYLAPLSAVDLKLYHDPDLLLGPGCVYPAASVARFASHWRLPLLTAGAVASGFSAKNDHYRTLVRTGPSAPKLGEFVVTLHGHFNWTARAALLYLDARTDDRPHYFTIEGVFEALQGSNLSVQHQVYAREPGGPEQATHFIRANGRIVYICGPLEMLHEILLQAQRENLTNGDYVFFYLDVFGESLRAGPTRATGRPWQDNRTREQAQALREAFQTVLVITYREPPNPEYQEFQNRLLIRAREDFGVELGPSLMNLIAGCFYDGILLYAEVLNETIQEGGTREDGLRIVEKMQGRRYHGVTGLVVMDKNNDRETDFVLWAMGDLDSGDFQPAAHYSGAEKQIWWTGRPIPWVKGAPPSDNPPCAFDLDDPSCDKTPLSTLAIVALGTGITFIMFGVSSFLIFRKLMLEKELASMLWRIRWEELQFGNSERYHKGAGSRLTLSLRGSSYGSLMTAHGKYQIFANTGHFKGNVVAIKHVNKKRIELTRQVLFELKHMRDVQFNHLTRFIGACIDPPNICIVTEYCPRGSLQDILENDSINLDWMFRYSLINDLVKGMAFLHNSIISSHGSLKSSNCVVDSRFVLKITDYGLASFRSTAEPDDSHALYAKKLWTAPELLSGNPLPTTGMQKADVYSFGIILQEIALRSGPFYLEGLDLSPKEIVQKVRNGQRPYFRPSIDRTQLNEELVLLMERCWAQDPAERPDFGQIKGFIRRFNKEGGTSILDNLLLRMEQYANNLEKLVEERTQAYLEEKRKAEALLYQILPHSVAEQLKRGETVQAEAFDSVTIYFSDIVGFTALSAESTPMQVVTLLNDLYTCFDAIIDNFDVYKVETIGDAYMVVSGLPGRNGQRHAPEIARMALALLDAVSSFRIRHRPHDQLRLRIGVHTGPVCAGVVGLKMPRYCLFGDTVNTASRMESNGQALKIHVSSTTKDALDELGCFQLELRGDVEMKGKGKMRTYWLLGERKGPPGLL
Experiment: cell-based or functional assay

With EEEEEEPSSAAPQPNAPSTSAGLSKGCFGLKLDRIGSMSGLGC (modifications not checked) [C3(E6) [BC3]] as the binder, how does the % Efficacy read?
The % Efficacy was 67%.

And the EC50 (nM), NPR-B whole cell cGMP assay?
Its EC50 (nM), NPR-B whole cell cGMP assay is 990 nM.

And the EC50 Ratio versus CNP22?
Its EC50 Ratio versus CNP22 is 67.4.

And the Rescue Ratio Average?
The Rescue Ratio Average was 199.

Which % Efficacy does the source give for EEEEEEASTSPANPQPAASSPGLSKGCFGLKLDRIGSMSGLGC (modifications not checked) [C2(E6) [BC2]] here?
Its % Efficacy is 97%.

What about the EC50 (nM), NPR-B whole cell cGMP assay of the same binder?
Its EC50 (nM), NPR-B whole cell cGMP assay is 720 nM.

And the EC50 Ratio versus CNP22?
The EC50 Ratio versus CNP22 was 49.

What about the Rescue Ratio Average of the same binder?
Its Rescue Ratio Average is 803.
